IC50 data for two compounds are collected here from BindingDB's records for doi:10.1021/acschembio.6b00560 (Vanderbilt Institute of Chemical Biology, Vanderbilt …, 2016).

Chains of the proteins cited; added tags and fusions are not shown. Residues count along the entry.
UniProt Q05769, 18-604 V509I: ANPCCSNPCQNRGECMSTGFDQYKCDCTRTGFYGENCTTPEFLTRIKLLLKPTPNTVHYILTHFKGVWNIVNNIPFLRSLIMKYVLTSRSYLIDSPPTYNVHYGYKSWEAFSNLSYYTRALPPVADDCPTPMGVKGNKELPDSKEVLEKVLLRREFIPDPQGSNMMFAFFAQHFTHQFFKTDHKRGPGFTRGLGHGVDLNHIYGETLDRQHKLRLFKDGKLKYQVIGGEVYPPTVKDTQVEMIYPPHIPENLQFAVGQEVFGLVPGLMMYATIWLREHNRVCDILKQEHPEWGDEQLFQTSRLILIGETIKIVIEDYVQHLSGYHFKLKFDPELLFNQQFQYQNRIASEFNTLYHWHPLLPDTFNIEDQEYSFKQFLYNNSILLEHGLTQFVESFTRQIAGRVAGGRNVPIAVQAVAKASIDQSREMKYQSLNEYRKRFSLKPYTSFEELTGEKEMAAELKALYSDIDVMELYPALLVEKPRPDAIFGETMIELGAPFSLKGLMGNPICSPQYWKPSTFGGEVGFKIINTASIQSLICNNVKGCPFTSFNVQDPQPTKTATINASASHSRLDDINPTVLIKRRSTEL
UniProt Q05769, 18-604 S516A: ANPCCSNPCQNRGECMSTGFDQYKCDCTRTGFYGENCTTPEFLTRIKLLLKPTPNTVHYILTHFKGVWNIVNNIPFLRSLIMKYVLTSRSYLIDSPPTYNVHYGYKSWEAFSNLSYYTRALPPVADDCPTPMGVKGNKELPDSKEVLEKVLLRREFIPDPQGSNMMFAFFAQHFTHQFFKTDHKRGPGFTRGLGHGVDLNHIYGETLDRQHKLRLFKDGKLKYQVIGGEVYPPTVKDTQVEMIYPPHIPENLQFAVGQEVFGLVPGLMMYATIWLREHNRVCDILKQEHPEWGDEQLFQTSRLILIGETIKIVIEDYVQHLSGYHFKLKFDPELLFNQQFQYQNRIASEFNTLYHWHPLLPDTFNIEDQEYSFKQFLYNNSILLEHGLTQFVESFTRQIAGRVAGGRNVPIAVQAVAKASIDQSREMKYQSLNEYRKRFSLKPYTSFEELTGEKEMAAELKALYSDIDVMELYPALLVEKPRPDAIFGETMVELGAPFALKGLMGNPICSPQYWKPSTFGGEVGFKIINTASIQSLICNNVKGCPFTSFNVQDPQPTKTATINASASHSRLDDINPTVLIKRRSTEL

Test [1] addresses T1, Prostaglandin G/H synthase 2 (Mus musculus, UniProt Q05769).
T1 sequence (Q05769 whole entry): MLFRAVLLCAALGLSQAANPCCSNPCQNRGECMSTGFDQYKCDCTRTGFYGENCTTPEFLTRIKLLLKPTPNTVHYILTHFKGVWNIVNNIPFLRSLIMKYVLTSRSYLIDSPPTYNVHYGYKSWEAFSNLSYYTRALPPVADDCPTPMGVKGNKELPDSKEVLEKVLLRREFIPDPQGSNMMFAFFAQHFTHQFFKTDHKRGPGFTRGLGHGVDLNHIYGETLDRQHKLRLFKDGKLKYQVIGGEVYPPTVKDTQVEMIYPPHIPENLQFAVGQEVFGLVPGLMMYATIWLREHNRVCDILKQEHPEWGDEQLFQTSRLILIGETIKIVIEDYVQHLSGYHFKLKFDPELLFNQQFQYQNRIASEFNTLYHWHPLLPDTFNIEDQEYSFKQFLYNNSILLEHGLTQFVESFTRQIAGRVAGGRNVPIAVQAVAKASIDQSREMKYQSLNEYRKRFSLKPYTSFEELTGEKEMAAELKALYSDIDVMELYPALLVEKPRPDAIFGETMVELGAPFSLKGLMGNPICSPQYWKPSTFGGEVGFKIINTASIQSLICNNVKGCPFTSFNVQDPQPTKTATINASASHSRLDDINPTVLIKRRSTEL
Briefly: COX Enzyme Inhibition Assay (Table 1). As to the method:
Each molecule was evaluated for its ability to inhibit purified mouse COX-2 or ovine COX-1 using a previously described assay. [Kalgutkar et al, J. Med. Chem., 43:2860-2870]

The target of test [2] is Prostaglandin G/H synthase 2 [18-604,V509I] (Mus musculus, UniProt Q05769, V509I).
Test [3] concerns the target Prostaglandin G/H synthase 2 [18-604,S516A] (Mus musculus, UniProt Q05769, S516A).
Test [4] deals with T1, Prostaglandin G/H synthase 2.

As for `COc1ccc2c(c1)c(CC(=O)NCCOC(=O)CCC(=O)O[C@@H]1c3cc4c(cc3[C@H](c3cc(OC)c(OC)c(OC)c3)[C@@H]3C(=O)OCC13)OCO4)c(C)n2C(=O)c1ccc(Cl)cc1` (stereo not given in full) [Cytotoxic conjugates, 13], the IC50 (as a rule, the concentration that gives 50% inhibition) in test [1] is 250 nM. This counts as sub-micromolar.
Consider `COc1ccc2c(c1)c(CC(=O)NCCCCNC(=O)CCC(=O)O[C@@H]1c3cc4c(cc3[C@H](c3cc(OC)c(OC)c(OC)c3)[C@@H]3C(=O)OC[C@H]31)OCO4)c(C)n2C(=O)c1ccc(Cl)cc1` [N-{(Succinylpodophyllotoxinyl)but-4-yl}-2-{1-(4-chlorobenzoyl)-5-methoxy-2-methyl-1H-indol-3-yl}acetamide], for which the half-maximal inhibitory concentration (IC50) in test [2] is 1100 nM; in test [3], 1500 nM; in test [4], 290 nM; in test [1] it was 290 nM.
